Molecular target: T1, human TNFα (Homo sapiens, UniProt P01375)
T1 construct: purchased Biosource, Camarillo, Calif
Experiment: p55 receptor/IgG fusion protein binding assay (inhibition of TNFα capture by p55-Ig coated plate)
Conditions: positive control, cA2 Fab 500 ng/ml, TNFα 25 ng/ml; typical value
Protocol: In order to screen compounds for their ability to block TNFα binding to the TNF p55 receptor, an assay has been designed using TNFα and a p55/IgG fusion protein in place of monovalent, non-fusion p55 TNF receptor protein. This assay was designed to identify peptides which bind to human TNFα and thereby prevent the capture of the TNFα by a microtiter plate coated with p55-Ig fusion protein. A constant concentration of human TNFα is preincubated with the test peptide and then incubated on the p55-Ig coated microtiter wells. Bound TNFα is detected using a specific antisera and an alkaline phosphatase-conjugated probe. An active peptide will reduce the amount of human TNFα bound to the well relative to control wells in which TNFα but no peptide was added. […]
To detect TNFα captured by the p55-Ig plate, all wells were incubated in succession with polyclonal rabbit anti-human TNFα (Genzyme, Boston, Mass.; 1:500 in assay buffer, 50 μl/well), biotinylated goat anti-rabbit Ig (H&L) (Vector Laboratories, Burlingame, Calif; 1 μg/ml in assay buffer, 50 μl/well) and streptavidin-alkaline phosphatase conjugate (Pierce, Rockford, Ill.; 1 μg/ml in assay buffer, 50 μl/well). […] The optical density (OD) at 405 nm was measured on a microtiter plate reader (Molecular Devices Vmax plate reader), with the plate blank wells subtracted as background. […]

The chains behind the UniProt entries cited, without tags or fusion partners. Residues count along the entry.
UniProt P01375, 77-233 limits assumed: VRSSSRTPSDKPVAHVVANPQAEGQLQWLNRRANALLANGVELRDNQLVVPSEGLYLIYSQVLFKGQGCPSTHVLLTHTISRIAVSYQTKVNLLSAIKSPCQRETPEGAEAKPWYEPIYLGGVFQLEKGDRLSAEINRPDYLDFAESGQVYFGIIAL

Substance: cA2 Fab: Fab fragment of the mouse/human monoclonal anti-human TNFα antibody cA2 (positive control) [reference compound]
- percent inhibition of TNFα capture by the p55-Ig plate: > 75%
